Assay results reported in US20210261677A1.

Target: recombinant human PD-L1-His protein (Origincell Therapeutics Co., Ltd.) (human) (UniProt Q9NZQ7)
Test: BLI (Octet RED384), antibody on AHC sensor, PD-L1-His in solution

Kd: 1.03 nM | koff: 0.000305 s⁻¹ | kon: 296000 M⁻¹ s⁻¹
Substance: anti-PD-L1 antibody Avelumab
